Consider 17 compounds from ChEMBL document CHEMBL1122729, “Nonquaternary cholinesterase reactivators. 2. Alpha-heteroaromatic aldoximes and thiohydroximates as reactivators of ethyl methylphosphonyl-acetylcholinesterase in vitro” (1984).

The nature of series [1]: Biomolecular rate constant(kn) for reaction of oximate with 7.5*10e-4 M AcSCh in 0.1 M phosphate buffer.
Series [2] can be described thus: Rate constant(Ko) for spontaneous hydrolysis of 7.5*10e-4 M AcSCh in 0.1 M phosphate buffer.
Series [3] in a line: Dissociation constant (pKa in 0.1 M buffer).
The nature of series [4]: Effective biomolecular rate constant at the concentration 0.500 mM [HOX] in the conditions of 25degreeC,pH 7.6. Conditions: pH 7.6, 500 µM.
Series [5] can be described thus: Partition coefficient (logP). Conditions: octanol/water.
A short description of series [6]: Biomolecular rate constant for reactivation and measure of the inherent reactivity of the oximate form of the reactivator at the concentration 0.500 mM [HOX] in the conditions of 25degreeC,pH 7.6. Conditions: pH 7.6, 500 µM.
Series [7] is described as follows: Biomolecular rate constant for reactivation and measure of the inherent reactivity of the oximate form of the reactivator in the conditions of 25degreeC,pH 7.6.
Series [8] can be described thus: Effective biomolecular rate constant in the conditions of 25degreeC,pH 7.6.
Series [9] in a line: Biomolecular rate constant(Kn) for reaction with 7.5*10e-4 M EPMP under pseudo-zero-order conditions.
Series [10] deals with Anguilliformes. Briefly: Concentration at 2 uM that inhibits 50%of acetylcholinesterase activity evaluated in vitro at a pH of 8 in the presence of 7.5x10E-4 acetylthiocholine. Conditions: read-out: I50.
The nature of series [11]: Biomolecular rate constant for reactivation and measure of the inherent reactivity of the oximate form of the reactivator at the concentration 1.00 mM [HOX] in the conditions of 25degreeC,pH 7.6. The following applies: pH 7.6, 1000 µM.
A short description of series [12]: Effective biomolecular rate constant at the concentration 1.00 mM [HOX] in the conditions of 25degreeC,pH 7.6. Conditions: pH 7.6, 1000 µM.
A short description of series [13]: Biomolecular rate constant for reactivation and measure of the inherent reactivity of the oximate form of the reactivator at the concentration 0.790 mM [HOX] in the conditions of 25degreeC,pH 7.6. Conditions: pH 7.6, 790 µM.
Series [14] is described as follows: Effective biomolecular rate constant at the concentration 0.790 mM [HOX] in the conditions of 25degreeC,pH 7.6. Conditions: pH 7.6, 790 µM.
The subject of series [15] is Anguilliformes. Description: Concentration at 1.50 uM that inhibits 50%of acetylcholinesterase activity evaluated in vitro at a pH of 8 in the presence of 7.5x10E-4 acetylthiocholine. Conditions: read-out: I50.
The nature of series [16]: Biomolecular rate constant for reactivation and measure of the inherent reactivity of the oximate form of the reactivator at the concentration 0.767 mM [HOX] in the conditions of 25degreeC,pH 7.6. The following applies: pH 7.6, 767 µM.
A short description of series [17]: Effective biomolecular rate constant at the concentration 0.767 mM [HOX] in the conditions of 25degreeC,pH 7.6. The following applies: pH 7.6, 767 µM.

What is called pKa is the negative logarithm of the acid dissociation constant. A higher pKa goes with a group that holds its proton tightly. The compound `Cc1nsnc1/C=N\O` displayed a Kn in series [1] of 3.95 M⁻¹ s⁻¹. In series [2], this compound showed a Ko of 0.00062 min⁻¹. The compound also showed a pKa in series [3] of 9.61.

As a reminder, the logP is a log measure of how a compound divides between an organic and an aqueous phase. A higher logP goes with a more lipophilic compound. The compound `O/N=C/c1nc(-c2ccccc2)no1` yielded a K HOX in series [4] of 175. For the same compound, in series [1], the Kn worked out at 0.863 M⁻¹ s⁻¹. Also, the Ko in [2] worked out at 0.00031 min⁻¹. In addition, the logP in series [5] is 2.61. In series [6], the K OX came out at 9.28 M⁻¹ s⁻¹.

In series [7], `CCN(CC)CCS/C(=N/O)C(=O)c1ccc(Br)cc1.Cl` registered a K OX of 1.59 M⁻¹ s⁻¹. For the same compound, the pKa in series [3] was 7.44. The compound further had a K HOX in [8] of 56.2. The compound also came in with a Kn in [9] of 0.0187 M⁻¹ s⁻¹.

Consider `CCN(CC)CCS/C(=N\O)c1nnc(-c2ccccc2)o1`, for which the IC50 in the series on Anguilliformes [10] was found to be 22 µM.

The compound `O/N=C\c1cnsn1` gave a Kn in series [1] of 3.45 M⁻¹ s⁻¹. The compound also displayed a Ko in series [2] of 0.00051 min⁻¹. Also, the pKa in series [3] turned out to be 9.45.

In [1], `O/N=C/c1nnc(-c2ccccc2)o1` returned a Kn of 1.32 M⁻¹ s⁻¹. In series [2], this compound displayed a Ko of 0.00015 min⁻¹. Further, the K OX in [11] was 1.52 M⁻¹ s⁻¹. Moreover, the logP in series [5] amounted to 1.96. In series [3], this compound came in with a pKa of 8.41. For the same compound, in series [12], the K HOX was 12.2.

Regarding `Cc1nonc1/C=N/O`, the Kn was found to be 2.13 M⁻¹ s⁻¹ in series [1] and 0.225 M⁻¹ s⁻¹ in series [9]. The Ko in series [2] was 0.00027 min⁻¹. The pKa in series [3] was 9.15.

As to `C[n+]1ccccc1/C=N/O.[I-]`, in series [7], the K OX was 160 M⁻¹ s⁻¹. Moreover, the K HOX in series [8] came out at 2780. The Kn in [9] is 0.095 M⁻¹ s⁻¹.

As for `CCN(CC)CCS/C(=N\O)c1nnc(-c2ccccc2)o1.Cl`, the Kn in series [1] amounted to 0.038 M⁻¹ s⁻¹. In addition, the Ko in series [2] turned out to be 0.00012 min⁻¹. In addition, the K OX in series [11] is 0.11 M⁻¹ s⁻¹. For the same compound, the logP in series [5] stood at 1.13. In addition, the pKa in series [3] stood at 6.35. This compound displayed a K HOX in series [12] of 6.42.

In series [13], `Cc1nsc(/C=N/O)n1` displayed a K OX of 0.295 M⁻¹ s⁻¹. In [1], this compound returned a Kn of 0.0947 M⁻¹ s⁻¹. The Ko in [2] was determined as 0.00025 min⁻¹. Also, in series [5], the logP worked out at 0.66. In series [14], this compound had a K HOX of 14.3.

In the case of `CCN(CC)CCS/C(=N\O)c1nc(C)no1`, the Kn in series [1] came to 0.0635 M⁻¹ s⁻¹. This compound displayed a Ko in series [2] of 0.00016 min⁻¹. The compound also registered a K OX in [11] of 0.0937 M⁻¹ s⁻¹. In [3], this compound registered a pKa of 6.3. This compound also showed a K HOX in series [12] of 5.34.

In turn, `CCN(CC)CCS/C(=N/O)c1nonc1C.Cl` gave a Kn in series [1] of 0.628 M⁻¹ s⁻¹. The same compound returned a Ko in series [2] of 0.00028 min⁻¹. Moreover, in [11], the K OX came to 0.308 M⁻¹ s⁻¹. This compound showed a logP in series [5] of 1.1. In series [3], this compound gave a pKa of 7.59. The same compound gave a K HOX in series [12] of 10.6.

In turn, `Cc1noc(/C=N/O)n1` yielded a Kn in series [1] of 1.53 M⁻¹ s⁻¹. The same compound registered a Ko in series [2] of 0.00024 min⁻¹. This compound also gave a K OX in series [11] of 13.3 M⁻¹ s⁻¹. In series [5], this compound had a logP of 0.47. Besides, in [3], the pKa is 8.1. In series [12], this compound displayed a K HOX of 192.

In series [1], `CCN(CC)CCS/C(=N/O)c1cnsn1` returned a Kn of 0.427 M⁻¹ s⁻¹. The compound further displayed a Ko in [2] of 0.00028 min⁻¹. In [11], this compound came in with a K OX of 0.857 M⁻¹ s⁻¹. This compound displayed a logP in series [5] of 0.74. The compound also had a pKa in series [3] of 7.69. In series [12], this compound gave a K HOX of 23.

Turning to `CCN(CC)CCS/C(=N\O)c1nc(-c2ccccc2)no1`, the Kn in [1] came out at 0.0725 M⁻¹ s⁻¹; in series [9] it was 0.00488 M⁻¹ s⁻¹. This compound registered a Ko in series [2] of 0.00026 min⁻¹. Besides, the K OX in series [11] was 0.365 M⁻¹ s⁻¹. This compound displayed a logP in series [5] of 1.78. For the same compound, the IC50 in the series with Anguilliformes [15] turned out to be 7.5 µM. Moreover, in [12], the K HOX amounted to 20.8.

As to `O/N=C/c1cnns1`, in series [1], the Kn turned out to be 0.712 M⁻¹ s⁻¹. The compound also displayed a Ko in [2] of 0.00025 min⁻¹. For the same compound, in [16], the K OX was determined as 0.242 M⁻¹ s⁻¹. Besides, the logP in [5] was determined as 0.72. In [17], the K HOX came out at 7.02.

Turning to `CCN(CC)CCS/C(=N/O)c1nsnc1C.Cl`, the Kn in series [1] stood at 1.19 M⁻¹ s⁻¹. The Ko in series [2] is 0.00028 min⁻¹. Further, the K OX in series [11] was 1.1 M⁻¹ s⁻¹. In addition, in series [5], the logP was determined as 1.02. In series [3], this compound had a pKa of 8.65. Also, the K HOX in [12] stood at 5.41.
